Amino acid sequences for entries named in this document (tags omitted). A change or cut given only in a name is not applied to a line headed by its entry.
UniProt P24468: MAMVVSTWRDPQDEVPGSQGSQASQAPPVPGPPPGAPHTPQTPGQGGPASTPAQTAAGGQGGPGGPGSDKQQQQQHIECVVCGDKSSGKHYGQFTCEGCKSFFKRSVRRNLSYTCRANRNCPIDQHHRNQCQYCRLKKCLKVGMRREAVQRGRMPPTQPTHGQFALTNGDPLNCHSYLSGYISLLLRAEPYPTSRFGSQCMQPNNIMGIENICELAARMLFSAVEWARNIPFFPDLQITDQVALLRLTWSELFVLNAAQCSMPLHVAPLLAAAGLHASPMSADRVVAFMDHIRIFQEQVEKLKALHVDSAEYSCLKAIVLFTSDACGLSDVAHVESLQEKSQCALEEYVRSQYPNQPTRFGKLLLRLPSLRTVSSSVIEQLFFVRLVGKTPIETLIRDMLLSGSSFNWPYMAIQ

This is a selection; strong and weak results do not stand in their true shares. The source made the active and inactive calls.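 The calls were made as follows: active = inhibition above a per-plate cutoff, mean inhibition of test wells between control levels plus 3 SD (cut at about 38% in these data); inactive = the rest.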
These compounds were tested against COUP transcription factor 2 (Homo sapiens) (UniProt P24468) (assay: NR2F2 transcriptional activity inhibitors, primary screen, cell-based, luciferase reporter, HEK293T, luminescence (AID 686940;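 also: cells cotransfected with COUP-TFII expression vector driving the NGFI-A reporter; 0% = median of COUP-TF2 test wells and 100% = reporter-only cells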)). Conditions: HEK293T NGFI-A luciferase reporter, at 8.6 µM, hits give high values.
`CC(C)C(=O)NC(Sc1ccccc1)C(Cl)(Cl)Cl` (stereo not drawn) was tested, and the inhibition was inactive: 11%.
`O=P(Nc1nccs1)(c1ccccc1)c1ccccc1` was tested, and the inhibition was inactive: -1.94%.
With `c1nnnn1CCn1cnnn1` the inhibition was inactive: 15.6%.
In the case of `O=[As](O)(c1ccccc1)c1ccc(O)cc1`, the inhibition is reported as inactive: -19.3%.
For `O=[N+]([O-])c1ncn(CCn2cnc([N+](=O)[O-])n2)n1`, the inhibition was inactive: -5.17%.
In the case of `CC(=O)NC(SC(=S)N(C)C)C(Cl)(Cl)Cl` (stereo not drawn), the inhibition is reported as inactive: 19.2%.
For `O=C(OC1CN2CCC1CC2)c1cccc(Cl)c1` (stereo not drawn), the inhibition was inactive: 1.38%.
In the case of `Nc1ccc([As](=O)(O)c2ccc([N+](=O)[O-])cc2)cc1`, the inhibition is reported as inactive: -15.9%.
In the case of `C(Cc1nn[nH]n1)Cc1nn[nH]n1`, the inhibition is reported as inactive: -7.71%.
`C/C(N)=N\P(=O)(OCc1ccccc1)OCc1ccccc1` was tested, and the inhibition was inactive: 9.89%.
With `O=P(Nc1ccccn1)(c1ccc(Br)cc1)c1ccc(Br)cc1` the inhibition was inactive: -3.51%.
`CN(C)C1(CNC(=O)c2ccc(Cl)c(S(N)(=O)=O)c2)CCCCC1` was tested, and the inhibition was inactive: 32.5%.
In the case of `Nc1ccc(CCCCOc2ccccc2)cc1`, the inhibition is reported as inactive: 2.88%.
For `COc1ccc(N)c([N+](=O)[O-])c1[N+](=O)[O-]`, the inhibition was inactive: -9.87%.
With `C[C@H]1OP(=O)(Oc2ccccc2)[C@H](O)[C@H](O)[C@H]1N=[N+]=[N-]` (stereo partly drawn) the inhibition was inactive: -7.13%.
In the case of `O=P(Nc1nc2ccccc2s1)(c1ccccc1)c1ccccc1`, the inhibition is reported as inactive: 10.8%.
For `CCC(=O)N1C2C3N(C(=O)CC)C1C1N(C(=O)CC)C(C(N1C(=O)CC)N3C(=O)CC)N2C(=O)CC`, the inhibition was inactive: 8.86%.
For `O=C(OC1CN2CCC1CC2)c1ccccc1` (stereo not drawn), the inhibition was inactive: 19.2%.
For `Cc1ccc(OP(=O)(Nc2ccccn2)Oc2ccc(C)cc2)cc1`, the inhibition was inactive: 5.63%.
In the case of `CC(=O)NC(SC(=S)N(CC(C)C)CC(C)C)C(Cl)(Cl)Cl` (stereo not drawn), the inhibition is reported as inactive: 1.22%.
In the case of `COC(=O)c1cc2c(s1)N=C(c1ccccc1)N(C)P2(=O)N1CCOCC1` (stereo not drawn), the inhibition is reported as inactive: 9.84%.
For `CN(C)C(=O)Oc1noc2ccccc12`, the inhibition was inactive: -11.8%.
For `O=c1c2cc([N+](=O)[O-])ccc2[nH]c2c([N+](=O)[O-])cc([N+](=O)[O-])cc12`, the inhibition was inactive: 5.66%.
For `Cc1ccccc1OP(=O)(Nc1ccccn1)Oc1ccccc1C`, the inhibition was inactive: -12.6%.
For `CC(NC(=O)COC(=O)C(O)(c1ccccc1)c1ccccc1)c1ccccc1` (stereo not drawn), the inhibition was inactive: -16.3%.
For `Cc1ccc(NP(=O)(Oc2cccc(C)c2)Oc2cccc(C)c2)nc1`, the inhibition was inactive: -13.8%.
`c1ccc(-c2nn[nH]n2)c(-c2nn[nH]n2)c1` was tested, and the inhibition was inactive: -23%.
With `CCNC(=S)/N=C(\N)N[N+](=O)[O-]` the inhibition was inactive: -10.6%.

From PubChem BioAssay AID686940 (The Scripps Research Institute Molecular Screening Center, 2013)
